Test system: control CNiFER (clone #128C3)
Experiment: Control CNiFER
Assay type: cell-based
Settings: highest concentration, 1000 nM (Figure 1L)

Structure (SMILES): CC(=O)OCC[N+](C)(C)C [ACh, acetylcholine]
- FRET response of control CNiFERs: small response
